Source: patent US7368576B2, “Dipeptidyl peptidase IV inhibitors and their uses as anti-cancer agents” (Probiodrug AG, priority 2001, dated 2008)

The chains behind the UniProt entries cited, without tags or fusion partners. Residues count along the entry.
UniProt P14740, 37-767 limits assumed: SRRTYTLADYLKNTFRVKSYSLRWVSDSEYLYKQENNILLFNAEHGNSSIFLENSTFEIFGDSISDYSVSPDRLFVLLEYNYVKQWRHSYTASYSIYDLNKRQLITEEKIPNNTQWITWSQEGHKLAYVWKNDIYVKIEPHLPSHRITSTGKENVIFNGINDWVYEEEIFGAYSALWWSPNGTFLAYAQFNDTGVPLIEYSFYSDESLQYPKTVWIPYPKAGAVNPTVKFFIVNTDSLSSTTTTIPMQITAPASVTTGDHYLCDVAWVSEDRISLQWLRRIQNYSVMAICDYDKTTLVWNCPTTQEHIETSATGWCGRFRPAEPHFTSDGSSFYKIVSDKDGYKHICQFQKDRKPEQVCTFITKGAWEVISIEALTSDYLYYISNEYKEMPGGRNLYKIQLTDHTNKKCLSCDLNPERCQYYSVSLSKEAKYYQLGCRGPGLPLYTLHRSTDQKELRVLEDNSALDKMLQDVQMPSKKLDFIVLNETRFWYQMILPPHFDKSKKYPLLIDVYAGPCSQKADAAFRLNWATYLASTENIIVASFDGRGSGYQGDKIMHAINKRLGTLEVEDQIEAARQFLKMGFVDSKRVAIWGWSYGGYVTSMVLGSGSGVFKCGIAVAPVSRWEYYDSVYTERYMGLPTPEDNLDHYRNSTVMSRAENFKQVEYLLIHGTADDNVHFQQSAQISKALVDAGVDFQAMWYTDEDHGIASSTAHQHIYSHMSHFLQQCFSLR

Molecular target: T1, plasma DPIV activity (Rattus norvegicus, UniProt P14740)
T1 construct: determination of plasma DPIV activity consisted of 80 μl reagent and 20 μl plasma sample; from tissue; host or cells: plasma of Wistar rats after i.v. or p.o. dosing
Experiment: DPIV inhibiting activity after intravasal and oral administration to Wistar rats
Assay type: in vivo
Settings: 100 mg/kg, oral

For `CC[C@H](C)[C@H](N)C(=O)N1CCC[C@H]1C(=O)N[C@H](C(=O)O)[C@@H](C)CC` [Diprotin A, Ile-Pro-Ile, reference compound], the “In vivo DPIV-inhibition at tmax, p.o. (%)” value was “no inhibition”.
With `CC(C)C[C@H](NC(=O)[C@@H]1CCCN1C(=O)[C@@H](N)C(C)C)C(=O)O` [Diprotin B, Val-Pro-Leu, reference compound] the “In vivo DPIV-inhibition at tmax, p.o. (%)” value was “no inhibition”.
